# Shown are results outside the selection of hits, which stands elsewhere. Active and inactive are the calls of the source. Calls come from the whole dose curve; as a rule, active = well fitted inhibition curve with a large enough effect; inconclusive = small, poorly fitted or top-dose-only effect; inactive = flat fitted curve, though single readings scatter.
# Amino acid sequences for entries named in this document (tags omitted). A change or cut given only in a name is not applied to a line headed by its entry.
# UniProt P29466: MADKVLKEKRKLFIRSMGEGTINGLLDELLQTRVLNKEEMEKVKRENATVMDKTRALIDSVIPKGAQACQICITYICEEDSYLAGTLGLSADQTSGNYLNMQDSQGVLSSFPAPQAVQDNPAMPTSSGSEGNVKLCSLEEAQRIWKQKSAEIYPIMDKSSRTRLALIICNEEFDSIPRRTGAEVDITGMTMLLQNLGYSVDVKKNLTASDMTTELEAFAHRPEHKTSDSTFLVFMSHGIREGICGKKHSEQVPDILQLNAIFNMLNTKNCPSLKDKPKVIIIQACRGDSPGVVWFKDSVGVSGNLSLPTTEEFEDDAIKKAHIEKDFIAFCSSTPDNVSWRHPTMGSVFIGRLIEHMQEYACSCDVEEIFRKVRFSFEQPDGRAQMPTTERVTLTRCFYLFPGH
# Biological target: Caspase-1 (Homo sapiens) (UniProt P29466)
# Test: qHTS Assay for Allosteric/Competitive Inhibitors of Caspase-1;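 note: plate controls were vehicle for no effect and no substrate for full effect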
# Conditions: Caspase-1 enzyme, Ac-WEHD-AFC fluorogenic rate; at 25.7 µM (top of the series)
# Description: NIH Molecular Libraries Screening Centers Network [MLSCN]
# NIH Chemical Genomics Center [NCGC]
# PI Name: Dr. James Wells,
# Dr. Enrique Perez-Paya, Dr.Janice Williams, Dr. Dennis Wolan, a person
# The caspases (Cysteine Aspartyl Protease) comprise a related family of 14 dimeric proteases that are critical mediators of apoptosis (programmed cell death) and inflammation. The caspases represent an important class of drug targets for stroke, ischemia, cancer and inflammatory diseases. […] One goal of this project was to identify compounds that act as allosteric inhibitors via stabilizing the procaspase form of the enzyme. […]
# The biochemical assay was configured using purified caspase 1 at a high enzyme concentration to promote formation of the homodimers and thus facilitate the identification of allosteric inhibitors. […] After initiation of the assay with substrate the plates were rapidly read using an automated robotic system (Kalypsys, Inc.) to maintain consistent timing. […]
# Caspase 1 was prepared in buffer (50 mM HEPES pH 7.5, 50 mM KCl, 200 mM NaCl, 10 mM DTT, 0.1% CHAPS) at a concentration of 66.6 nM and 3 uL was dispensed to all wells using black solid Kalypsys 1536-well plates. […] The plates were then exposed using 405 nm excitation/520 nm emission filters for 4 sec and read at 20 sec intervals for 3 min. […]
row,SMILES,"activity change, negative = inhibition"
1,Cc1cc2c(C(C)C)c(O)c(O)c(C=O)c2c(O)c1-c1c(C)cc2c(C(C)C)c(O)c(O)c(C=O)c2c1O,inactive: -6.57%

# From PubChem BioAssay AID900 (National Center for Advancing Translational Sciences (NCATS), 2007)
